Literature values, collected in paper PMC6641930 (ACS Omega, 2017).
pKd: −log10 of the molar value.

Chains of the proteins cited; added tags and fusions are not shown. Residues count along the entry.
UniProt P05067, 672-713: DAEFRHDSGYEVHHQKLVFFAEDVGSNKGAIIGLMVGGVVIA

Target: Aβ1-42 fibrils (Homo sapiens, UniProt P05067)
Conditions: read-out: Kd values for ThT toward Aβ fibrils; cited from earlier work

Cc1ccc2c(c1)sc(-c1ccc(N(C)C)cc1)[n+]2C [ThT, thioflavin T]
pKd: 4.52 to 5.70
